Measured values taken from US20250213700A1, “COMPOUNDS, COMPOSITIONS, AND METHODS FOR CELL-SPECIFIC PHARMACOLOGY” (Duke University, priority 2022, published 2025).

Columns and labels:
Format in all cases: cell-based, rat
ddHTP = ddHTP (Rhodococcus rhodochrous, UniProt P0A3G2, A155T/A167V/A172T/A224E/C128F/C176G/D106E/D78G/E160K/E257K/H272N/K175M/K195N/L246R/L47V/L88M/N227D/N41E/S58T/T264A/V245L/W107G/Y273L/Y87F); assay: binding of HTL.2 to double dead control protein ddHTP in cultured neurons
Source text: biotin-HTL: Dissociated neurons were electroporated with either the +HTP or ddHTP construct and cultured as described above. A dilution series for both the biotin-PEG12-HTL.1 and biotin-PEG12-HTL.2 compounds was made in BASE solution containing 1% BSA (Sigma A7904), representing 12 final concentrations (in uM) between 10 and 0.001. After a brief rinse in BASE+BSA to acclimate the live neurons to room temperature and avoid temperature effects to the binding kinetics, a single coverslip was incubated in one of the twelve dilutions for 15 min, washed twice in BASE+BSA, then incubated in a 1:500 dilution of Streptavidin-AlexaFluor488 (Invitrogen) for 15 min. The neurons were rinsed four times then transferred to a glass-bottom imaging plate containing BASE+BSA. Each coverslip was imaged in its entirety by combining several 10× images (TR at 10 ms; GFP at 100 ms) together using the Olympus CellSens software stitching algorithm. A dose-response curve was created from the individual coverslips using MatLab.
Mutation of the HTP at its D106 residue was first explored, to which HTL forms a covalent bond. […] Next, the distributed mutations of the catalytic triad was explored, combining the subtle D106E mutation with W107G and N41E mutations. A second strategy was also explored, in which the tunnel entrance was blocked by installing bulky side-chains, with V245L and L246R mutations.

endogenous AMPARs = assay: all-optical cultured-neuron assay of AMPAR-dependent synaptic transmission; conditions: YM90K payload
[1] = molecular target: HaloTag Protein (HTP) on +HTP neurons (Rhodococcus rhodochrous, UniProt P0A3G2, A155T/A167V/A172T/A224E/C128F/C176G/D78G/E160K/E257K/H272N/K175M/K195N/L47V/L88M/N227D/S58T/T264A/Y273L/Y87F); assay: biotin-HTL capture dose-response on +HTP cultured neurons
Description: Cultured neuronal assays: Preparation of hippocampal cultures: Mixed glial and neuronal cultures were prepared from the hippocampus of postnatal day 0 to 1 Sprague-Dawley rat pups. Separate pools of dissociated cells were transfected via electroporation (LONZA, V4SP-3096) with plasmid constructs, and depending on assay directives, either plated individually or mixed with a different pool of electroporated cells after a 10 min recovery period. Cells were cultured on coverslips (Deckglaser) pre-treated with high molecular weight poly-D-lysine (Sigma, P7405; 0.05 mg/mL) in 24-well plates and maintained in NbActiv4 (BrainBits, Nb4-500) at 37 C, 5% CO2. […]
Various compounds were assessed by measuring their EC50 (nM); the concentration needed to achieve half-maximal capture on +HTP neurons following 15 minutes of incubation with the given ligand.
To enable direct quantification of capture efficiency, commercially available HTL (i.e., HTL.1) were conjugated to biotin via a flexible polyethylene glycol linker of moderate length (PEG12), to mimic the longer (PEG36) linker typically used in an RxDART. […] Dose-response curves were performed by incubating neuronal coverslips with a given ligand for 15 min, followed by washing, fluorescent labeling of biotin, and quantification of capture. […]

In the case of COc1cc(CCCCl)ccc1CCOCCNC(=O)c1ccc(CNC(=O)CCOCCOCCOCCOCCOCCOCCOCCOCCOCCOCCOCCOCCNC(=O)CCCC[C@@H]2SC[C@@H]3NC(=O)N[C@@H]32)cc1, the “binding to ddHTP” value (ddHTP) is reported as “zero measurable binding”, the “HTL50 (t=15 m) change, HTL.1 to HTL.2” value (endogenous AMPARs) is reported as 10 fold and the “HTL50 (t=15 m) improvement over HTL.1” value ([1]; biotin payload) is reported as 40 fold. It also gave an EC50 ([1]; read-out: HTL50 (t=15 m), side-by-side capture experiments on cultured neurons, biotin-PEG12 conjugate, 15 min) of 10 nM.
